In patent publication US20110034670A1 (BOARD OF GOVERNORS FOR HIGHER EDUCATION STATE OF RHODE …, published 2011):

Molecular target: Src SH2 domain
Assay: fluorescence polarization, competition with fluorescein-Gly-pTyr-Glu-Glu-Ile-NH2

B1: ATP-1,13-Trioxa-SA-pTyr-γ-p-azidoGlu-Glu-Ile-OH (7) (peptide)
peptide: YEEI
modifications: 8-azido-ATP linked through 4,7,10-trioxa-1,13-tridecanediamine and succinoyl to the N-terminus; phosphotyrosine at 1; p-azidophenylamino group on the γ-carboxyl of Glu 2 (P+1)
notes: also called compound 7; diazido ATP-phosphopeptide conjugate 7
- IC50: 35.6 µM
